Source: US9724341B2 (priority 2013, dated 2017)
Like-named read-outs stand apart in the source and are kept apart here.

Settings: isothermal TGA, API powder
Protocol: A typical calorimetric scan of nicotine m-salicylate powder is illustrated in FIG. 2. […] Thermogravimetric analysis on the powder was run in both scanning and isothermal modes. […] Isothermal data were also obtained on the API powder (˜10 mg per run) at 40° C., 50° C., and 60° C. for periods of at least 3 days.

## Nicotine monodimethylmalonate
40° C.
  Nicotine Mass Loss: 51 µg/day
50° C.
  Nicotine Mass Loss: 374 µg/day
60° C.
  Nicotine Mass Loss: 2707 µg/day
